Assay outcomes: PubChem BioAssay, National Center for Advancing Translational Sciences (NCATS)
miR-21 reporter – raises the signal of a miR-21 reporter; HeLa miR-21 FLuc reporter, luciferase, 48 h; Potency, µM (top dose mostly 38.3 µM); AID 2288; 340,000 tested, under 10 active; active = well fitted rising curve with a large enough effect; inconclusive = small, poorly fitted or top-dose-only effect; inactive = no such curve, though single readings can be large or run the other way;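 note: miR-21 action dims this reporter so a rising signal means less miR-21 action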
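HeLa cells endogenously expressing miR-21, stably carrying CMV-driven firefly luciferase with a downstream miR-21 binding site, 2000 cells/well. Titrations up to approximately 40 uM, 48 hours; luciferase luminescence read.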
TDP1 cell CPT – growth inhibition of DT40 Tdp1-/-;hTDP1 cells with camptothecin (screen for TDP1 inhibitors) | chicken DT40 Tdp1-/-;hTDP1 cells + 20 nM CPT, ATP luminescence, 48 h | Potency, µM (highest dose often 46.2 µM), most hits filed as inhibitors | 12% of 420,000 active; also: nearly all actives have a fitted effect of over 55% in size
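Chicken DT40 Tdp1-/- cells stably complemented with human TDP1 were seeded at 400 cells/well in medium containing 20 nM camptothecin, exposed to pin-transferred compounds, and grown at 37 °C for at least 48 hr. Viability was read as ATP luminescence.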
TDP1 cell noCPT – qHTS for Inhibitors of human tyrosyl-DNA phosphodiesterase 1 (TDP1): qHTS in cells in absence of CPT; DT40 Tdp1-/- hTDP1 cells, no CPT, ATP luminescence, 48 h; Potency, µM (series often up to 46.2 µM), usual class: inhibitors; 15% of 420,000 active; AID 686978, 2013; also: nearly all actives have a fitted effect of over 55% in size
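Compound effects on proliferation are scored in DT40 Tdp1-/-;hTDP1 cells in the absence of CPT. ATP levels (CellTiter-Glo luminescence) are recorded after a ≥48 hr, 37 °C incubation.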
TDP1 inh – inhibitors of human tyrosyl-DNA phosphodiesterase TDP1. Q9NUW8. recombinant TDP1, AlphaScreen DNA substrate cleavage. Potency, µM (titrated, usually from 130 µM), hits mostly inhibitors. 0.28% of 350,000 active. AID 485290; also: nearly all actives have a fitted effect of over 40% in size
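E. coli-derived human Tdp1, 1 nM final. Cpd preinc 15 min RT; substrate 15 nM final, 5 min RT; AS bead mix 10 ug/ml final, 10 min RT. Signal loss = tyrosine-FITC cleavage. No-enzyme wells = max signal.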
uPA surface inh – inhibitors of cell surface uPA generation | 0.31% of 330,000 active | Potency, µM (doses to about 38.3 µM), actives largely listed as inhibitors | cell surface uPA generation assay, qHTS; active = well fitted inhibition curve with a large enough effect; inconclusive = small, poorly fitted or top-dose-only effect; inactive = no such curve, though single readings can be large or run the other way; tested in mouse RAW 264.7 cells; also: nearly all actives have a fitted effect of over 55% in size
A number is an active result; . = inactive; ? = inconclusive; / = no result given; [ ] = remark or other dose. Only some compounds are listed: those with a hit (about 16% of all), similar ones and a draw of the others. Unless noted, calls follow the shape of the dose curve; as a rule, active = well fitted curve in the direction sought with a large enough effect; inconclusive = small, poorly fitted or top-dose-only effect, or another doubt; inactive = no such curve, though single readings can be large; an effect the other way counts as inactive or inconclusive.

SMILES	miR-21 reporter	TDP1 cell CPT	TDP1 cell noCPT	TDP1 inh	uPA surface inh
Cc1ccc(S(=O)(=O)NCC(=O)N(CC(=O)NCC2CCCO2)CC2CCCO2)cc1 (stereo not drawn)	.	.	.	.	.
COC(=O)c1sc2ncn(CC(=O)N(C)C3CCCCC3)c(=O)c2c1C	.	.	?	.	.
COC(=O)c1cccc(N2CCCC2=O)c1	.	.	.	.	.
COC(=O)c1cccc(-n2sc3ccccc3c2=O)c1	/	2.06µM	3.26µM	.	.
C[C@H](NC(=O)c1ccco1)C(=O)N1CCN(c2ccc(C(F)(F)F)cn2)CC1	/	.	?	.	.
O=C1C(C=Nc2ccccc2O)=C(O)c2ccccc21	.	3.26µM	1.3µM	.	?
Cc1ccc(O)c(N=CC2=C(O)c3ccccc3C2=O)c1	.	?	23.1µM	.	.
CC(=O)Nc1ccc(Nc2ccc(S(=O)(=O)C(F)(F)F)cc2[N+](=O)[O-])cc1	.	?	20.6µM	.	.
O=[N+]([O-])c1cc(S(=O)(=O)Nc2ccccc2)ccc1Nc1ccccc1	/	?	14.6µM	/	.
O=[N+]([O-])c1cc(S(=O)(=O)Nc2ccc(Cl)cc2)ccc1N/N=C/c1ccncc1	.	?	5.8µM	.	.
Cc1oc2ccc(O)c(CN3CCN(C)CC3)c2c1C(=O)Nc1ccc(C(C)C)cc1	.	16.4µM	20.6µM	.	/
Cc1oc2ccc(O)c(CN3CCN(C)CC3)c2c1C(=O)Nc1ccccc1	.	.	.	.	/
Cc1ccc(NC(=O)c2c(C)oc3ccc(O)c(CN4CCCCCC4)c23)c(C)c1	.	9.2µM	6.51µM	.	/
CCOC(=O)c1c(-c2ccccc2)oc2ccc(O)c(CN3CCCC3)c12	.	23.1µM	20.6µM	.	.
Cc1ccc(NC(=O)c2c(C)oc3ccc(O)c(CN4CCOCC4)c23)c(C)c1	.	.	.	.	/
Cc1oc2ccc(O)c(CN3CCCC3)c2c1C(=O)Nc1ccc(C(C)C)cc1	.	23.1µM	23.1µM	.	/
Cc1ccc(NC(=O)c2c(C)oc3ccc(O)c(CN4CCCCCC4)c23)cc1	.	14.6µM	16.4µM	.	/
CCc1cccc(CC)c1NC(=O)c1c(C)oc2ccc(O)c(CN3CCCC3)c12	.	?	?	.	/
Cc1ccc(NC(=O)c2c(C)oc3ccc(O)c(CN4CCOCC4)c23)cc1	.	?	?	.	/
CCOC(=O)c1c(CSCc2ccccc2)oc2ccc(O)c(CN(C)C)c12	.	14.6µM	16.4µM	.	.
CCOC(=O)c1[nH]c(C)c(C(=O)N(C)Cc2ccccc2)c1C	.	?	?	.	/
Cc1ccc(NC(=O)c2c(C)oc3ccc(O)c(CN4CCN(Cc5ccccc5)CC4)c23)cc1	.	20.6µM	.	.	/
Cc1oc2ccc(O)c(CN3CCCCCC3)c2c1C(=O)Nc1cccc(C(F)(F)F)c1	.	3.66µM	5.17µM	.	/
Cn1c(CC(=O)Nc2ccccc2C(F)(F)F)c(Sc2ccccc2)c2ccccc21	.	.	.	.	.
CC1(C)SC(=S)N(/N=C/c2ccc(O)cc2)C1N(O)C(=O)Nc1ccc([N+](=O)[O-])cc1 (stereo not drawn)	.	23.1µM	?	.	.
SMILES	miR-21 reporter	TDP1 cell CPT	TDP1 cell noCPT	TDP1 inh	uPA surface inh
CNC(=O)N(O)C1N(/N=C/c2ccc(C)cc2)C(=S)SC1(C)C (stereo not drawn)	.	.	.	/	.
CC1(C)SC(=S)N(/N=C/c2cccnc2)C1N(O)C(=O)Nc1ccccc1 (stereo not drawn)	.	.	.	.	.
Cc1ccc(/C=N/N2C(=S)SC(C)(C)C2N(O)C(=O)Nc2ccc([N+](=O)[O-])cc2)cc1 (stereo not drawn)	.	?	18.4µM	.	.
CC1(C)SC(=S)N(/N=C/c2ccccc2O)C1N(O)C(=O)Nc1ccccc1 (stereo not drawn)	.	11.6µM	16.4µM	.	.
N#C/C(=C\c1ccc(Cl)cc1Cl)c1n[nH]c(Cn2cncn2)n1	.	.	.	.	.
COCCN1C(=O)N[C@@H](c2cccc(C(F)(F)F)c2)[C@@H](C(=O)OC)[C@H]1C	/	.	.	.[12.3 µM]	.
COc1c(C(O)CC(C)C)ccc2c1C(=O)OCc1cc(C)cc(O)c1O2 (stereo not drawn)	.	?	18.4µM	.	.
COc1c(C(CC(C)C)OC(C)=O)ccc2c1C(=O)OCc1cc(C)cc(O)c1O2 (stereo not drawn)	?	9.2µM	11.6µM	/	?
Cc1nn(CC(=O)NCC2CCCO2)c(=O)c2ccccc12 (stereo not drawn)	.	.	.	.	.
CCN(CC)CCCC(C)n1c(-c2ccccc2)nc2c(N3CCOCC3)nc(C)nc21 (stereo not drawn)	/	/	/	.	/
COc1ccccc1CNC(=O)C1(C)CCN1Cc1ccc2ccccc2c1 (stereo not drawn)	/	.	.	/	/
CCCCNC(=O)C1(C)CCCCN1Cc1ccc2ccccc2c1 (stereo not drawn)	/	23.1µM	?	/	/
